ChEMBL document CHEMBL1136263, “Synthesis of non-competitive inhibitors of sphingomyelinases with significant activity” (Bioorg Med Chem Lett, 2003)

What was measured:
[1] = system: Sphingomyelinase (Bacillus cereus); experiment: Effect on neutral sphingomyelinase (N-SMase) from Bacillus cereus at IC50 concentration; No effect
[2] = system: Sphingomyelinase (Bacillus cereus); experiment: as above; remark: listed apart in the source

Q: What does the source list for `CCCCCCCCCCCCCCCC(=O)N[C@@H](CC(F)(F)P(=O)(O)O)[C@H](O)c1ccccc1`?
A: IC50 [1]: Not Active; Ki [2]: Not Active
